This experiment addresses Sodium-dependent serotonin transporter (Rattus norvegicus, UniProt P31652). Briefly: Binding potency for Serotonin transporter using [3H]- paroxetine.

Protein sequences, listed by entry. Tags and fused reporters are not part of them.
UniProt P31652, whole entry: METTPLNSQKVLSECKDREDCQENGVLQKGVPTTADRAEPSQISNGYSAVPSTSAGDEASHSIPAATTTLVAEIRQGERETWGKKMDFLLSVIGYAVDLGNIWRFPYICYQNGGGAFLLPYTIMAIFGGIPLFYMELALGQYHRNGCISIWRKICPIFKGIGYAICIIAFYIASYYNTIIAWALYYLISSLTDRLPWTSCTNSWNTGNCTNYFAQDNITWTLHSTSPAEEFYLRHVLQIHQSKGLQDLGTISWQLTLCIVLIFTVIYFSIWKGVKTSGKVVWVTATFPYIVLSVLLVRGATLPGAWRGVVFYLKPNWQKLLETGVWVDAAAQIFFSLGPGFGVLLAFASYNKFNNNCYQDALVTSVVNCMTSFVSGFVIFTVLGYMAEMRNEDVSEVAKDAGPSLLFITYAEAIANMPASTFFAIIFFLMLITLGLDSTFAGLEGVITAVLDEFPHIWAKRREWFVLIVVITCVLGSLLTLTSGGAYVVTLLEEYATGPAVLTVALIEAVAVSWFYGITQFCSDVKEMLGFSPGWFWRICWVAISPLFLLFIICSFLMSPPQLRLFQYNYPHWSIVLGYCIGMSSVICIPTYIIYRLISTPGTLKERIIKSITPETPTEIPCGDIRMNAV

Regarding `COC(=O)[C@@H]1C2CC[C@H](C[C@@H]1c1ccccc1)N2C` (stereo in doubt; 2e), the IC50 (commonly the midpoint of a concentration-inhibition curve) amounted to 5.7 µM.

The values are drawn from ChEMBL document CHEMBL1129677, “3 alpha-(4'-substituted phenyl)tropane-2 beta-carboxylic acid methyl esters: novel ligands with high affinity and selectivity at the dopamine transporter” (J Med Chem, 1996).
